Ab-14 heavy chain CDR variants: yeast mating affinities

Target: peptide PDVDLGDISGINAS, taken from heptad repeat 2 (HR2) of SARS-CoV-2 spike.

The variants keep the light chain, the linker and the frameworks of Ab-14 (scFv order VH, three GGGGS repeats, VL).
VH: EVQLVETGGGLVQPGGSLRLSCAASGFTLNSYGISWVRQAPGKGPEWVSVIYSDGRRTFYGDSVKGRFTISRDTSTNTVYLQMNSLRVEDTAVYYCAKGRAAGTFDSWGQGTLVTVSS
VL: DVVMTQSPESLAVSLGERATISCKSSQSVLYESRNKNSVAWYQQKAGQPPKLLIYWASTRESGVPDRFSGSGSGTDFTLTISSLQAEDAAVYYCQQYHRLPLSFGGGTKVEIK

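Phage display of a naive human antibody library on the peptide gave the parent. AAYL49 was designed without a model: most single CDR substitutions and a random sample of double and triple ones. The scFvs were displayed on barcoded MATa yeast, the peptide on MATalpha yeast. The frequency of each diploid, read from paired DNA barcodes, reflects how well the two displayed proteins bind. The ratio of observed to expected reads was calibrated, replicate by replicate, on BCL2-family standards whose Kd was known from biolayer interferometry. There are three technical replicates.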

Positions count from residue 1 of the parent VH; R57P puts P in place of R.
Numbers give log10(Kd / nM), so 0 is 1 nM and 3 is 1 µM. Smaller is tighter.
Replicates are averaged; those with no signal do not enter the mean.
Where no diploid with the target was found in any replicate, the entry reads "nd": below detection, most likely a poor binder, though not proof of it.
Nonspecific signal, from three strains lacking the peptide, appeared in 15% of pairings of library AAYL49, centred on 4.06 (5% of these signals below 2.83); values are not corrected for it.
In this assay the parent's reference entry averaged 0.65; its copy inside this library read 4.11 (one replicate of three).

5.07 (3 of 3 replicates): R57P/D106L.
nd (0 of 3 replicates): G26M/G33K.
0.25 (3 of 3 replicates): T28N/F59M/A101Q.
0.64 (3 of 3 replicates): R56L/A102D/D106R.
3.95 (2 of 3 replicates): I51L/V64I/F105V.
2.77 (1 of 3 replicates): G99A/G103D/D106T.
2.42 (3 of 3 replicates): S53P/R56F/G103V.
nd (0 of 3 replicates): Y32K/G55S/F59R.
4.25 (1 of 3 replicates): T28P/S53C/T58F.
nd (0 of 3 replicates): G26M/T28M/V50G.
4.52 (2 of 3 replicates): Y32C/D62R.
3.07 (2 of 3 replicates): G26L/T58D/A101L.
3.94 (1 of 3 replicates): F27G/D54K/Y60R.
nd (0 of 3 replicates): T28H/R57I/V64R.
4.97 (1 of 3 replicates): T28H/Y60V/G99K.
5.21 (1 of 3 replicates): T28K/G33C/F105V.
1.53 (3 of 3 replicates): T58Q/S63D.
3.91 (2 of 3 replicates): F27R/N30L/S35H.
3.54 (3 of 3 replicates): V64L/R100M/A102E.
nd (0 of 3 replicates): D54E/G55P/F105G.
nd (0 of 3 replicates): I34E/S35F.
4.13 (1 of 3 replicates): R57N/Y60R/K65M.
nd (0 of 3 replicates): G55L/F59Q/A102L.
3.88 (3 of 3 replicates): I34S/R57C/R100D.
2.58 (1 of 3 replicates): V50M/I51L/G55D.
nd (0 of 3 replicates): R57E/F59W/D62M.
1.73 (3 of 3 replicates): S31Q/R56K/V64S.
nd (0 of 3 replicates): F59N/G99P/A102Y.
nd (0 of 3 replicates): S31W/G99W.
nd (0 of 3 replicates): V50W/R57C/G99I.
5.20 (1 of 3 replicates): V50G/A102L.
2.82 (1 of 3 replicates): F27T/Y60H/F105T.
4.85 (1 of 3 replicates): T28P/D54Q.
4.88 (3 of 3 replicates): F27P/N30V/Y60P.
nd (0 of 3 replicates): L29A/N30Q/D62V.
4.60 (1 of 3 replicates): F59N/G99A/A101V.
3.50 (2 of 3 replicates): S31Q/V64D/A101W.
3.50 (1 of 3 replicates): G33Y/R57N/D106P.
nd (0 of 3 replicates): L29K/G99S/R100S.
nd (0 of 3 replicates): Y32P/G61P/R100Y.
4.35 (3 of 3 replicates): Y60L/D106S.
1.05 (3 of 3 replicates): A102M/D106W/S107V.
nd (0 of 3 replicates): Y32C/V50N/D106Q.
3.69 (2 of 3 replicates): N30C/S53Q/G103W.
4.36 (1 of 3 replicates): Y32S/V50S/D106C.
3.46 (1 of 3 replicates): S31E/S53P/G99Q.
4.65 (1 of 3 replicates): R57M/T58Y/F59N.

The first 3 variants above that were never detected:

changes	log10 Kd (nM), mean	seen in
G26M/G33K	nd	0 of 3
Y32K/G55S/F59R	nd	0 of 3
G26M/T28M/V50G	nd	0 of 3

Values reported by Engelhart et al. 2022, doi:10.1038/s41597-022-01779-4 (FLAb copy).